The entries are a selection whose mix differs from that of the whole data set. Activity calls are given as the source filed them.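 Rule for the calls: active = mean activation across triplicates above the hit threshold derived in the original primary screen (cut at about 15% in these data); inactive = the rest.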
target: 5-hydroxytryptamine receptor 2A (Mus musculus) (UniProt P35363); assay: mouse HTR2A agonists, beta-arrestin recruitment, confirmation, cell-based, luminescence, CHO-K1 PathHunter, triplicate (AID 624381); settings: at 7.6 µM, hits give high values, DMSO 0%, 30 µM serotonin 100%

Chains of the proteins cited; added tags and fusions are not shown.
UniProt P35363, whole entry, looked up: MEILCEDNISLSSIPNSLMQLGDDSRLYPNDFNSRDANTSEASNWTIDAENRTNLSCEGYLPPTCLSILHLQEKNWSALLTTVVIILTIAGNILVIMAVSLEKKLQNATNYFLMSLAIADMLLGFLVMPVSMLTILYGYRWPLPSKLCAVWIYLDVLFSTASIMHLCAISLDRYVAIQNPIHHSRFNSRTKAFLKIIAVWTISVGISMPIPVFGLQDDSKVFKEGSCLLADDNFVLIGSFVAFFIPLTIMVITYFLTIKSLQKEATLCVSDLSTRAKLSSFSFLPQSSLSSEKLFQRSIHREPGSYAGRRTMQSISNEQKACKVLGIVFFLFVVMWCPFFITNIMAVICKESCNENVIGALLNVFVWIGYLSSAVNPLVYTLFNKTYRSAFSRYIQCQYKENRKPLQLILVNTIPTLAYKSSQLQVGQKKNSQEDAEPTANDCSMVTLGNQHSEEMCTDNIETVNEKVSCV

Compound	activation
COc1ccc(N)c([N+](=O)[O-])c1[N+](=O)[O-]	inactive: -6.67%
